Biological target: T1, recombinant human PARP (PARP1) (Homo sapiens, UniProt P09874)
T1 construct: Full length human PARP (PARP1) is assembled from PCR fragments; His6 tag with TEV site, from the pFastBac-HTb vector (own knowledge of the vector); made in house; host or cells: insect cells, baculovirus (Bac-to-Bac, Gibco-BRL)
Assay: PARP enzyme assay, Method A (radioactivity or 'ELISA' enzyme assay with partially purified enzyme)
Type: biochemical
Conditions: NAD 200 μM, read-out: IC50 of reference compounds
Excerpt: Two different methods are employed in determining the activity of the compounds of this invention in inhibiting the activity of PARP enzyme, designated as Method A and Method B respectively as set forth below.
Method A: Cloning and Expression, and Partial Purification of Recombinant Human PARP:
Full length human PARP (PARP1) is assembled from PCR fragments of a clone from a human brain cDNA library and two Incyte clones. The PARP gene (3046 bp) is sub-cloned into pFastBac-HTb vector to give PARP-pFastBac-HTb and the sequence of this clone is verified. PARP-pFastBac-HTb is expressed to obtain protein using the Bac-to-Bac expression protocol from Gibco-BRL. The recombinant virus generated is used to scale up the material for purification.
Cell pellets from cell broth of cells expressing PARP are treated with a cocktail of protease inhibitors and lysed by 4 freeze-thaw cycles. The material is suspended in 10 mM HEPES/0.1M NaCl/pH 7.2, stirred, and then centrifuged. […]
Radioactivity Enzyme Assay:
Incorporation of radioactivity from labeled NAD into acid-precipitated protein is measured. […] After washing with TCA and ethanol, the filter is dried and counted for tritium CPM after addition of scintillation fluid.
Incorporation of biotin-NAD into histone coated on plate is measured. […] The TMB reaction is quenched with 2M sulfuric acid and the absorbance at 450 nm is read.

Chains of the proteins cited; added tags and fusions are not shown.
UniProt P09874, whole entry: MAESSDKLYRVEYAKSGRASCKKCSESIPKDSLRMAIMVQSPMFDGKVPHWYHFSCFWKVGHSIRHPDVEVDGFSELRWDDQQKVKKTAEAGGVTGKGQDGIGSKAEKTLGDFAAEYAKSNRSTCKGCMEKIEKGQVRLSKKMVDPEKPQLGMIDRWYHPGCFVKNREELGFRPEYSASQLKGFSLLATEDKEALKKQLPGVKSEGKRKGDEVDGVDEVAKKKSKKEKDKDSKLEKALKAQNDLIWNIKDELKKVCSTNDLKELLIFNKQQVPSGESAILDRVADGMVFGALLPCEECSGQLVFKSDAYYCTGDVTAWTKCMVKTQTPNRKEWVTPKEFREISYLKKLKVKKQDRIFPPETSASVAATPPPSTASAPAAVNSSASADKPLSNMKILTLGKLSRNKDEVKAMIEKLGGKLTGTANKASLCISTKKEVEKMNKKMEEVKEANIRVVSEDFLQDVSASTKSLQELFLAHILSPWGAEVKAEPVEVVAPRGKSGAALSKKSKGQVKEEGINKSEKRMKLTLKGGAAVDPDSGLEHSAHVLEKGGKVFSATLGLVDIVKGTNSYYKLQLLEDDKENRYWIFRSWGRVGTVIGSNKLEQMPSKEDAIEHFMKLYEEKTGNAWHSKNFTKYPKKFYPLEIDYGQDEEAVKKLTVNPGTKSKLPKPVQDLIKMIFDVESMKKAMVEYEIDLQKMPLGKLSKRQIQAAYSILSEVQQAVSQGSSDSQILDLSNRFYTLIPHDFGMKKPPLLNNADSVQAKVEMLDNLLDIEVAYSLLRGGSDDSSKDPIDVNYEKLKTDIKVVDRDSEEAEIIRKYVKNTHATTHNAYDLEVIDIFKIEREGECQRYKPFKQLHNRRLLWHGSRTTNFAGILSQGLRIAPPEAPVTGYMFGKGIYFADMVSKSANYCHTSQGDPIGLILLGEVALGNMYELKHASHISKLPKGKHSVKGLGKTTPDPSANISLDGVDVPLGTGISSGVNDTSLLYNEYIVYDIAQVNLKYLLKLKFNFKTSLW

DPQ [reference compound] gave an IC50 of 11 µM.
